Entries after “also recorded” stand apart in the source; their conditions may differ.
Tests used:
cyclin D1 = biological target: T1, cyclin D1 (Homo sapiens, UniProt P24385); assay: Peptide precipitation assay with 35S-labelled cyclin D1; type: binding; details: biotinylated peptide on streptavidin-agarose beads, reticulocyte lysate
T1 construct: host or cells: rabbit reticulocyte lysate, in vitro translation

By UniProt entry, the sequences of proteins in these tests, tags left out.
UniProt P24385, whole entry: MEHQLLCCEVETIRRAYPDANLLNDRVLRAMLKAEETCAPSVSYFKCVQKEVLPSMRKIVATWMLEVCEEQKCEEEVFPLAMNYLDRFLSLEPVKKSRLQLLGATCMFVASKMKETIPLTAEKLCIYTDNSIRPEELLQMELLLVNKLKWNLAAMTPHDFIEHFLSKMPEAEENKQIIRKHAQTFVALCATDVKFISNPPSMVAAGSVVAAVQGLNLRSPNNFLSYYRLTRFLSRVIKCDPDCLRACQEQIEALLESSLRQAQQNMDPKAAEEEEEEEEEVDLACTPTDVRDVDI
UniProt P11802, whole entry, chain 1 of 2: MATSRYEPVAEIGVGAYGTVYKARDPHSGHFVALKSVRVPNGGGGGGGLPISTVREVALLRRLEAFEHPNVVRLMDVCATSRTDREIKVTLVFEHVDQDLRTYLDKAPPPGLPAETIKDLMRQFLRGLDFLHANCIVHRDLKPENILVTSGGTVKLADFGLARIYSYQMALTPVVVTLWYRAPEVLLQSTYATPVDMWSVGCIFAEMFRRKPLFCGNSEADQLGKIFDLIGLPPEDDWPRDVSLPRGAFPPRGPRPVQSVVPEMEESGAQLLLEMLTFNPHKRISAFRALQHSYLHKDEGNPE
UniProt P12004, whole entry, species assumed: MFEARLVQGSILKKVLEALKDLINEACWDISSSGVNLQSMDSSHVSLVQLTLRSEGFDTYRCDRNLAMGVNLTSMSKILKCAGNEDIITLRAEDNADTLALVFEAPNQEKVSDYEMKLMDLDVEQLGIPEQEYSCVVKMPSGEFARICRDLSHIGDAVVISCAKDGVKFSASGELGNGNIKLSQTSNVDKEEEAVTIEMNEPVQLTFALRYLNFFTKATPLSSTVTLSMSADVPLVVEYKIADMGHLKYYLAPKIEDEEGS

cyclin D1-Cdk4 = biological target: T2, cyclin D1-Cdk4 (Homo sapiens, UniProt P11802+P24385); assay: Cyclin D1-Cdk4 GST-Rb phosphorylation assay (Sf9 insect cell lysate); type: biochemical
T2 construct: made in house; host or cells: Sf9 insect cells, baculovirus co-infection; unpurified lysate
Method: “x” indicates no addition of peptide.
Cyclins and CDKs—Cdk4 and cyclin D1, Cdk2 and cyclin E and Cdc2 and cyclin B were co-expressed in Sf9 insect cells infected with the appropriate baculovirus constructs. The cells were harvested two days after infection by low speed centrifugation and the pellet was lysed in an equal volume of 10 mM Hepes, pH 7.4 containing: 10 mM NaCl, 1 mM EDTA, and 0.1 mM phenylmethane sulphonyl fluoride, 2 mM DTT and centrifuged at 14000×g for 15 min. The supernatant was removed, aliquoted and immediately frozen in liquid nitrogen. Thawed lysate was used only once and was never refrozen. Labelled Cdk4 and cyclin D1 were produced by translation in the presence of [^35S] methionine using a rabbit reticulocyte lysate in vitro translation kit (Promega).
Phosphorylation of GST-Rb—Cdk4 activity was measured using the cyclin D1-Cdk4 containing insect cell lysate described above. Extract (1 μl) was added to a final reaction volume of 10 μl, containing: 50 mM Hepes, pH 7.4, 10 mM MgCl2, 2.5 mM EGTA, 1 mM DTT, 10 mM β-glycerophosphate, 1 mM NaF, 10 mM PKI, 50 μM ATP containing [^32P] ATP (1000 cpm/pMol) and 0.5 μg GST-Rb. […] The samples were analysed by SDS-PAGE on 12% gels followed by auto-radiography and quantification using a Bio-Imager.

Cdk4 = biological target: T3, Cdk4 (Homo sapiens, UniProt P11802); assay: Peptide precipitation assay with 35S-labelled Cdk4; type: binding; details: biotinylated peptide on streptavidin-agarose beads, reticulocyte lysate
T3 construct: host or cells: rabbit reticulocyte lysate, in vitro translation

Cdk4 and/or cyclin D1 = assay: Peptide precipitation assay in the presence of full length his-p21WAF1 (competition); type: binding, human; details: 0, 0.5, 2 μg of p21WAF1
PCNA = PCNA (Homo sapiens, UniProt P12004); details: Warbrick et al. 1995; Ball and Lane 1996; cited from earlier work
[1] = biological target: cyclin D1-Cdk4 complex co-expressed in Sf9 insect cells (lysate) (UniProt P11802 1-303; P24385 1-295); assay: cell-based or functional assay

Molecule | binding to cyclin D1 (cyclin D1) | binding to Cdk4 (Cdk4) | also measured
CC[C@H](C)[C@H](NC(=O)[C@H](CC(C)C)NC(=O)[C@H](CCCNC(=N)N)NC(=O)[C@H](CCCNC(=N)N)NC(=O)[C@H](CCCCN)NC(=O)[C@H](CO)NC(=O)[C@H](Cc1c[nH]cn1)NC(=O)[C@H](Cc1ccc(O)cc1)NC(=O)[C@H](Cc1ccccc1)NC(=O)[C@H](C)NC(=O)[C@@H](NC(=O)[C@H](CCSC)NC(=O)[C@H](CO)NC(=O)[C@@H](NC(=O)[C@H](CCC(N)=O)NC(=O)[C@H](CCCNC(=N)N)NC(=O)[C@H](CCCNC(=N)N)NC(=O)[C@@H](N)CCCCN)[C@@H](C)O)[C@@H](C)O)C(=O)N[C@@H](Cc1ccccc1)C(=O)N[C@@H](CO)C(=O)O [D to A mutant peptide 10] | does not appear to increase the affinity of the peptide for either Cdk4 or cyclin D1 | does not appear to increase the affinity of the peptide for either Cdk4 or cyclin D1 | fold lower activity than full length p21WAF1 protein (cyclin D1-Cdk4; versus full length p21WAF1): 3.5 fold; fold more active than p16INK4-based peptide as Cdk4 inhibitor (cyclin D1-Cdk4; versus p16INK4-based peptide): approximately 350 fold
CC(C)C[C@H](NC(=O)[C@H](CCCNC(=N)N)NC(=O)[C@H](CCCNC(=N)N)NC(=O)[C@H](CS)NC(=O)[C@H](C)NC(=O)[C@@H](N)CCCCN)C(=O)N[C@@H](Cc1ccccc1)C(=O)NCC(=O)N1CCC[C@H]1C(=O)N[C@H](C(=O)N[C@@H](CC(=O)O)C(=O)N[C@@H](CO)C(=O)N[C@@H](CCC(=O)O)C(=O)N[C@@H](CCC(N)=O)C(=O)N[C@@H](CC(C)C)C(=O)N[C@@H](CO)C(=O)N[C@@H](CCCNC(=N)N)C(=O)N[C@@H](CC(=O)O)C(=O)N[C@@H](CS)C(=O)N[C@@H](CC(=O)O)C(=O)O)C(C)C [peptide 2] | capable of binding to cyclin D1; also recorded: forms a stable complex with cyclin D1; also recorded: binds to cyclin D1 | not to Cdk4 | effect of p21WAF1 protein on peptide binding to cyclin D1 and Cdk4 (Cdk4 and/or cyclin D1): prevents binding of both peptide 2 and peptide 10
Peptide-I: peptide 10 with M to A at position 7 synthesised onto Antennapedia carrier peptide, SEQ ID NO:24 (KRRQTSATDFYHSKRRLIFSRQIKIWFQNRRMKWKK) | – | – | binding to PCNA (PCNA): abolishing its activity as a PCNA binding peptide
R-A mutant: peptide 10 with R-A at residue 15, equivalent to residue 155 of the full length protein (KRRQTSMTDFYHSKARLIFSSGSG) | partially retained its ability to bind both Cdk4 and cyclin D1 | partially retained its ability to bind both Cdk4 and cyclin D1 | –
peptide 4: residues 46-65 of p21WAF1, SEQ ID NO:4, Biotin-SGSG spacer (RERWNFDFVTETPLEGDFAW; N-terminal biotin-SGSG spacer) | not to cyclin D1 | bound specifically to Cdk4; also recorded: high affinity for Cdk4; also recorded: capable of binding to Cdk4 to form a stable complex; also recorded: forms a stable complex with Cdk4 | –
peptide 11: extreme C-terminal peptide of p21WAF1, SEQ ID NO:11 (TSMTDFYHSKRRLIFSKRKP) | could form stable complexes with both Cdk4 and cyclin D1 | could form stable complexes with both Cdk4 and cyclin D1 | binding to PCNA (PCNA): not to PCNA; also recorded: cannot bind PCNA
KRRQTSMTAFYHSKRRLIFSSGSG (Biotin-SGSG spacer at the C-terminus; free N-terminus) [peptide 10 mutant with D-A at position 9 of peptide 10 or 149 of the full length protein] | – | – | fold activity as a Cdk4 inhibitory compound against the p16INK4-based peptide [1]: ~350 fold; fold specific activity as a kinase inhibitor against full length p21^WAF1 [1]: 3.5 fold

Reference: patent publication US6962792B1, “Methods and means for inhibition of Cdk4 activity” (Cyclacel Limited, priority 1996, dated 2005)
